Patent publication US4571399A, “7-(1-Methyl-5-p-methylbenzoylpyrrole-2-acetamidoethyl)-theophylline with anti-platelet aggregant and broncholytic activity” (Medosan Industrie Biochimiche Riunite S.p.A., priority 1983, dated 1986)
“Also recorded” adds a separate entry of the source. Like-named read-outs stand apart in the source and are kept apart here.

Legend:
[1] = tested on: platelet aggregation induced with ADP (platelet rich plasma); assay: In vitro anti-platelet aggregant activity (Born's method, ADP-induced aggregation); type: cell-based, rat; conditions: for inhibition at 1 µg/mL / inhibition at 5 µg/mL / inhibition at 10 µg/mL: Rattus norvegicus, Platelet, 0.05 h, 3 min incubation; for inhibition at 1 µg/mL: dose 1 γ/ml; for inhibition at 5 µg/mL: dose 5 γ/ml; for inhibition at 10 µg/mL: dose 10 γ/ml
mouse = conditions: i.p., literature value; cited from earlier work
in vivo = conditions: mouse
[2] = Antinflammatory and analgesic effects (no method described); conditions: summary in words; no data shown
[3] = tested on: guinea pig tracheal chains (histamine as bronchoconstrictor); assay: Broncholytic activity in vitro on tracheal chains (Akasu's method), antagonism of histamine; type: cell-based; conditions: summary in words
Solubility = type: physicochemical; conditions: in dichloromethane, N,N'-dimethylformamide
[4] = read-out: Inhibition % of platelet aggregation, ADP 7,08 μmol/l
[5] = ADP 7,08 μmol/l, read-out: Inhibition % of platelet aggregation

Row | SMILES | inhibition at 1 µg/mL ([1]; read-out: Inhibition % of platelet aggregation, ADP 2 μmol/l) [%] | inhibition at 1 µg/mL ([1]; read-out: Inhibition % of platelet aggregation, ADP 5 μmol/l) [%] | inhibition at 1 µg/mL [1, 4] [%] | inhibition at 5 µg/mL [1, 4] [%] | inhibition at 10 µg/mL [1, 4] [%] | DL50 (LD50) (mouse) [mg/kg] | inhibition at 1 µg/mL ([1]; ADP 2 μmol/l, read-out: Inhibition % of platelet aggregation) [%] | inhibition at 1 µg/mL ([1]; ADP 5 μmol/l, read-out: Inhibition % of platelet aggregation) [%] | inhibition at 1 µg/mL [1, 5] [%] | inhibition at 5 µg/mL [1, 5] [%] | inhibition at 10 µg/mL [1, 5] [%] | anti-platelet aggregant activity ([1]; summary in words) | LD50 (in vivo; ip) [mg/kg] | LD50 (in vivo; po) [mg/kg] | analgesic effect [2] | antinflammatory effect [2] | broncholytic activity [3] | Solubility (Solubility)
1 | CC(=O)Oc1ccccc1C(=O)O [Aspirin, reference compound] | 29 | 19 | 15 | 60 | 100 | 495 | – | – | – | – | – | – | – | – | – | – | – | –
2 | Cc1ccc(C(=O)c2ccc(CC(=O)NCCn3cnc4c3c(=O)n(C)c(=O)n4C)n2C)cc1 [compound (1), 7-(1-methyl-5-p-methylbenzoylpyrrole-2-acetamidoethyl)theophylline] | – | – | – | – | – | – | 30 | 21 | 12 | 59 | 90 | pronounced therapeutically useful anti-platelet aggregant activity | 970 | 1400 | low antinflammatory and analgesic effects | low antinflammatory and analgesic effects | good broncholytic action; also recorded: good broncholytic activity comparable to that of theophylline | soluble in dichloromethane, N,N'-dimethylformamide
